Patent publication US20200308582A1, “KCNK3-BASED GENE THERAPY OF CARDIAC ARRHYTHMIA” (UNIVERSITÄT HEIDELBERG, priority 2017, published 2020)

Test system: TASK-1 protein
Experiment: TASK-1 protein immunoblot in neonatal rat cardiomyocytes infected with AAV6 carrying siRNA
Conditions: siRNA sequences 1-3 compared, GAPDH loading control

siRNA3: siRNA sequence 3 directed against the porcine orthologue of TASK-1, delivered by AAV6 in a pri-miR155 scaffold (guide ACGTGGCCTTTAGCTTCGTCT)
downregulation of TASK-1 protein levels (in vitro efficacy): Highest in vitro efficacy | downregulation of TASK-1 protein levels (in vitro efficacy) (listed as siRNA sequence number 3): best results
